The entries are a selection whose mix differs from that of the whole data set. Active and inactive are the calls of the source. Rule as the data show it: active = inhibition above about 25%; inactive = the rest.

Amino acid sequences for entries named in this document (tags omitted).
UniProt P62877, whole entry, looked up: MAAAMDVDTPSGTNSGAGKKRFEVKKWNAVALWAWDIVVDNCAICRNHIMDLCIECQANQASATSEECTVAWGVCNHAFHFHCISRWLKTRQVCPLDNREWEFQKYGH
UniProt Q13616, whole entry, looked up: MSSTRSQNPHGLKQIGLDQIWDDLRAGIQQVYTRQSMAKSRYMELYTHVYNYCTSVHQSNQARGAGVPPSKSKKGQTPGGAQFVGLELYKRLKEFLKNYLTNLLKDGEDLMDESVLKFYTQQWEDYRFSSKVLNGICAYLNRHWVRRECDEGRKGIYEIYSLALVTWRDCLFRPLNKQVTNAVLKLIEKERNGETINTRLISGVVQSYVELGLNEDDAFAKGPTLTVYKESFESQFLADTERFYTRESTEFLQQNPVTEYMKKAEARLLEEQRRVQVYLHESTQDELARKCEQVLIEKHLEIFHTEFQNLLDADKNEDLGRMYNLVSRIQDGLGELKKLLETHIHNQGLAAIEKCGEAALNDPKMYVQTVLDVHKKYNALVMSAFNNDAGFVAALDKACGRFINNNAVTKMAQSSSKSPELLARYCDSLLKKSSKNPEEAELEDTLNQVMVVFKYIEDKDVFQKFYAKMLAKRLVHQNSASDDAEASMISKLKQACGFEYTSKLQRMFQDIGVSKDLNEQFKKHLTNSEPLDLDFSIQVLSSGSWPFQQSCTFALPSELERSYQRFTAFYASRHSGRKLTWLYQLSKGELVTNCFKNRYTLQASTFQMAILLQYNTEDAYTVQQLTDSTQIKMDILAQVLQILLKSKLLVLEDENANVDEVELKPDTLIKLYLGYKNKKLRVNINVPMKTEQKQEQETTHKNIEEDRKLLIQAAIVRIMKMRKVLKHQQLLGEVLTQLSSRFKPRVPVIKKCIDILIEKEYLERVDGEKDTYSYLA

This assay concerns the target E3 ubiquitin-protein ligase RBX1 (Homo sapiens) + Cullin-1 (Homo sapiens) (UniProt P62877+Q13616). Nature of the assay: inhibitors of human ROC1-CUL1 ubiquitin ligase activity (AID 1347404). The following applies: in vitro K48 di-Ub FRET, acceptor:donor ratio, 45 min; at 10 µM; stronger effect = higher value.
The inhibition is the change of the read-out against control, counted positive when it falls. Regarding `COc1cc(C(=O)NCC2(N3CCOCC3)CCCCC2)cc(OC)c1OC`, the inhibition was inactive: 4.93%. For the compound `Cc1ccccc1C(=O)NCC1(N(C)C)CCCCC1`, the inhibition is inactive: 3.71%. The value for `CC(C)(C)c1ccc(C(=O)NCC2(N3CCOCC3)CCCCC2)cc1` was inactive: 1.8%; that for `CN(C)C1(CNC(=O)c2ccc(C(C)(C)C)cc2)CCCCC1` was inactive: -3.72%; that for `O=C(NCC1(N2CCOCC2)CCCCC1)c1ccccc1` was inactive: -7.51%. Turning to `O=C(NCC1(N2CCOCC2)CCCCC1)c1ccccc1[N+](=O)[O-]`, the inhibition is inactive: 1.85%.

`O=C(NCC1(N2CCOCC2)CCCCC1)c1ccc([N+](=O)[O-])cc1`: the inhibition was inactive: -8.57%. As to `O=C(OC1CN2CCC1CC2)C1c2ccccc2C=Cc2ccccc21` (configuration not stated), the inhibition was inactive: -7.3%.

Turning to `NC(=O)C1(Nc2ccccc2)CCN(Cc2ccccc2)CC1`, the inhibition was inactive: -0.72%.

Turning to `CCCCOc1ccccc1C(=O)NCC1(N2CCOCC2)CCCCC1`, the inhibition is inactive: -5.04%.

As to `O=C(NCC1(N2CCOCC2)CCCCC1)c1ccccc1Br`, the inhibition is inactive: -9.57%. On to `CCCOc1cccc(C(=O)NCC2(N3CCOCC3)CCCCC2)c1`, for which the inhibition was inactive: -3.36%. `CN1CCC(Nc2ccccc2)CC1`: the inhibition is inactive: 3.34%. Turning to `CCOc1ccc(C(=O)NCC2(N3CCOCC3)CCCCC2)cc1`, the inhibition is inactive: -10.2%.

In the case of `O=C(NCC1(N2CCOCC2)CCCCC1)c1ccc(Cl)cc1`, the inhibition was inactive: -4.36%. Consider `COc1ccccc1C(=O)NCC1(N2CCOCC2)CCCCC1`, for which the inhibition is inactive: -5.29%. For the compound `N#CC1(Nc2ccccc2)CCN(Cc2ccccc2)CC1`, the inhibition is inactive: -5.79%.

The values above are taken from PubChem BioAssay AID1347404 (Pan Lab, Icahn School of Medicine at Mount Sinai, 2020).
